IC50 data for two compounds are collected here from ChEMBL document CHEMBL1144372, “Novel 2-amino-4-oxo-5-arylthio-substituted-pyrrolo[2,3-d]pyrimidines as nonclassical antifolate inhibitors of thymidylate synthase” (Bioorg Med Chem Lett, 2005).

Sequences of proteins named here, by UniProt entry; tags and fusion partners are left off.
UniProt C3SWJ7, whole entry: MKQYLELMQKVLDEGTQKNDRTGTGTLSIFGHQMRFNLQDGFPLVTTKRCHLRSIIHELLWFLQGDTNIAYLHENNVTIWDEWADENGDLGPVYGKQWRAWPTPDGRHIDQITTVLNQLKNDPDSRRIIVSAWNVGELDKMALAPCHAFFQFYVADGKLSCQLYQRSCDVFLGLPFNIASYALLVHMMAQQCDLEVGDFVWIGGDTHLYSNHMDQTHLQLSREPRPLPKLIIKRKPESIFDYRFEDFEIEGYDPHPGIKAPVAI

SMILES strings stand for the structures.

In one assay the target is Thymidylate synthase (Escherichia coli, UniProt C3SWJ7). Briefly: Inhibitory concentration against Escherichia coli thymidylate synthase.
The target in the next assay is T1, Dihydrofolate reductase (Homo sapiens, UniProt P00374).
T1 sequence (P00374 whole entry): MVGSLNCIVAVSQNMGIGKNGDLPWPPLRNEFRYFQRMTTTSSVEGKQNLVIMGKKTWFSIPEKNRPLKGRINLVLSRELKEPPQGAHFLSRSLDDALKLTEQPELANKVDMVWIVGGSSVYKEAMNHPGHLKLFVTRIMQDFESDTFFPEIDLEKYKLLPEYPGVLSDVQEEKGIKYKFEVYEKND
Briefly: Inhibitory concentration against human dihydrofolate reductase.

In general, IC50 refers to the concentration needed to halve the response being measured. Low values mean greater potency in that assay, high ones weaker potency in that assay.

As for `Nc1nc2[nH]cc(CCc3ccc(C(=O)N[C@@H](CCC(=O)O)C(=O)O)cc3)c2c(=O)[nH]1` [PEMETREXED], the IC50 was determined as 760 µM at Thymidylate synthase and 66 µM against Dihydrofolate reductase.
In turn, `Cc1nc2ccc(CN(C)c3ccc(C(=O)N[C@@H](CCC(=O)O)C(=O)O)s3)cc2c(=O)[nH]1` [RALTITREXED] yielded a concentration for half-maximal inhibition (IC50) against Thymidylate synthase of 57 µM.
